Article PMC9354565 (The journal of physical chemistry. B, 2022)

Legend:
ST2/IL33 binding [1] = biological target: T1, ST2/IL33 binding (Homo sapiens, UniProt Q01638); test: ST2/IL33 HTRF competitive inhibition assay, anti-Histag donor beads; settings: for inhibition of ST2/IL33 binding (in words): anti-Histag donor beads, highest concentration 30 mM
T1 sequence (Q01638 19-328 isoform Q01638-2 limits assumed): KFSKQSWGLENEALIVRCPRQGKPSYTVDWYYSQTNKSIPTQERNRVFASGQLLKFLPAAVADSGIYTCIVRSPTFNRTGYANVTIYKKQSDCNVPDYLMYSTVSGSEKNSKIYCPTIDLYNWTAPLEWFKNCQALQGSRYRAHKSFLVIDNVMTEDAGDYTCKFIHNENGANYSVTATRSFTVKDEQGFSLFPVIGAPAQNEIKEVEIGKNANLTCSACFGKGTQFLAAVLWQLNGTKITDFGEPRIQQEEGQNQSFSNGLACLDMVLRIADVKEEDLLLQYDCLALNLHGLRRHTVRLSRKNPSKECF

ST2/IL33 binding [2] = biological target: T1, ST2/IL33 binding; test: ST2/IL33 HTRF competitive inhibition assay, anti-Fc donor beads
ST2/IL33 binding [3] = biological target: T1, ST2/IL33 binding; settings: two concentrations, 1 and 10 mM; Figure 9A

Structure (SMILES): NCc1cccnc1 [AMP, 3-(aminomethyl)pyridine]
- inhibition of ST2/IL33 binding (in words) (ST2/IL33 binding [1]): no inhibition activity
- IC50 (ST2/IL33 binding [2]): > 30 mM

Structure (SMILES): N=C(N)c1ccccc1 [BZA, benzamidine]
- IC50 (ST2/IL33 binding [1]): 8.75 mM

Structure (SMILES): O=C(O)c1ccc(F)cc1O [Compound 2]
- inhibition in initial screening of SA analogs (ST2/IL33 binding [3]): exhibited inhibition

Structure (SMILES): O=C(O)c1cc(F)ccc1O [Compound 3]
- inhibition in initial screening of SA analogs (ST2/IL33 binding [3]): exhibited inhibition

Structure (SMILES): O=C(O)c1ccc(Br)cc1O [Compound 4]
- inhibition in initial screening of SA analogs (ST2/IL33 binding [3]): exhibited inhibition

Structure (SMILES): O=C(O)c1cc(Br)ccc1O [Compound 5]
- inhibition in initial screening of SA analogs (ST2/IL33 binding [3]): exhibited inhibition

Structure (SMILES): O=C(c1ccccc1)C(F)(F)F [Compound 6]
- inhibition in initial screening of SA analogs (ST2/IL33 binding [3]): abolished the activities

Structure (SMILES): COc1ccccc1C(=O)C(F)(F)F [Compound 7]
- inhibition in initial screening of SA analogs (ST2/IL33 binding [3]): abolished the activities

Structure (SMILES): O=C(O)c1cccnc1 [NA, nicotinic acid]
- IC50 (ST2/IL33 binding [1]): 5.89 mM
- decrease of the IC50 value with Fc donor beads vs anti-Histag donor beads (ST2/IL33 binding [2]; Fc donor beads vs anti-Histag donor beads): 2.8 fold

Structure (SMILES): NC(=O)c1cccnc1 [NAM, nicotinamide]
- inhibition of ST2/IL33 binding (in words) (ST2/IL33 binding [1]): some inhibitory activity only at 30 mM
- IC50 (ST2/IL33 binding [2]): > 30 mM

Structure (SMILES): O=C(O)c1ccccc1O [SA, salicylic acid]
- IC50 (ST2/IL33 binding [1]): 2.47 mM
